Measured values taken from publication PMC4955727 (Molecular bioSystems, 2016).

Amino acid sequences for entries named in this document (tags omitted).
UniProt P08183, whole entry: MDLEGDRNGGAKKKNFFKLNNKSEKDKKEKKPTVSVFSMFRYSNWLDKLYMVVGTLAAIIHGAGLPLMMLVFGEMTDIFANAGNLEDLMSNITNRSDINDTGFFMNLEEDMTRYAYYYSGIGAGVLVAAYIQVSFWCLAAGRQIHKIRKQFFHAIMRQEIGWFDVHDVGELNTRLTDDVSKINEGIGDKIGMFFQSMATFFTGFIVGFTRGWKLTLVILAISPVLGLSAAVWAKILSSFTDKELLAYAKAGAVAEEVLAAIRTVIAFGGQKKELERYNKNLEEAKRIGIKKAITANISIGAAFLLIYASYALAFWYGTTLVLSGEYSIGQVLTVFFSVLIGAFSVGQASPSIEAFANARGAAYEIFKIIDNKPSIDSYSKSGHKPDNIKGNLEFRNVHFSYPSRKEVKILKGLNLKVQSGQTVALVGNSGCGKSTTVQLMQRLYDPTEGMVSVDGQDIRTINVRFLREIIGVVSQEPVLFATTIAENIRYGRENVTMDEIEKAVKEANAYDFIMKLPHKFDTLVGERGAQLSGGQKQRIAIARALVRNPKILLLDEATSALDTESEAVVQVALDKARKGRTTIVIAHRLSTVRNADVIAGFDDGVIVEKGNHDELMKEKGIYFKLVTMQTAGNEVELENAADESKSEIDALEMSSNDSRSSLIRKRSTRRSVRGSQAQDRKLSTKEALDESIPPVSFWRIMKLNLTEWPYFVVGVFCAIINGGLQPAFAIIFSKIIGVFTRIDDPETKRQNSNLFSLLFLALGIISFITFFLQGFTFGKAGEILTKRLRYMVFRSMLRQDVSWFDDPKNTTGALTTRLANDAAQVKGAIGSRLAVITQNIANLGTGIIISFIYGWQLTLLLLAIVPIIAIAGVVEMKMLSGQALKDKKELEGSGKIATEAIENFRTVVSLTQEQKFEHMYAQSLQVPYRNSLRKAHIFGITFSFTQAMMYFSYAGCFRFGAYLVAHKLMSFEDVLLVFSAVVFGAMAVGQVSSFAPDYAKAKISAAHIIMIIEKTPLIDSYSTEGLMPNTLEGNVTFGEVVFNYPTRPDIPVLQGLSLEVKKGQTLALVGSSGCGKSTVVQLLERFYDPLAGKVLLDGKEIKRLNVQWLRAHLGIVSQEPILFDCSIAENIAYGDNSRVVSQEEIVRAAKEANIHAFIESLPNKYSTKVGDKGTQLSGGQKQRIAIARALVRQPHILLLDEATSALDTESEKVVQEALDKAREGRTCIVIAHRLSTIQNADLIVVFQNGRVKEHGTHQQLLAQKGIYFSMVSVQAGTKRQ

Columns and labels:
P-gp [1] = molecular target: P-gp (Homo sapiens, UniProt P08183)
P-gp [2] = details: cited from earlier work

Question: Which “Calcein-AM Efflux % inhibition” value (P-gp [1]) does the source give for Proanthocyanidin here?
Answer: Its value is 18.52%.

Question: And the “P-gp efflux inhibitory activity (in words)” value (P-gp [1])?
Answer: The value was “low inhibitory activity”.

Question: What about the IC50 (P-gp [2]) of the same substance?
Answer: The IC50 was 400 µM.
